Experimental data as given in patent publication US9708318B2, “Bicyclic heterocycles as FGFR4 inhibitors” (Incyte Corporation, priority 2015, dated 2017).

Amino acid sequences for entries named in this document (tags omitted). Residues count along the entry.
UniProt P21802, 22-821 limits assumed: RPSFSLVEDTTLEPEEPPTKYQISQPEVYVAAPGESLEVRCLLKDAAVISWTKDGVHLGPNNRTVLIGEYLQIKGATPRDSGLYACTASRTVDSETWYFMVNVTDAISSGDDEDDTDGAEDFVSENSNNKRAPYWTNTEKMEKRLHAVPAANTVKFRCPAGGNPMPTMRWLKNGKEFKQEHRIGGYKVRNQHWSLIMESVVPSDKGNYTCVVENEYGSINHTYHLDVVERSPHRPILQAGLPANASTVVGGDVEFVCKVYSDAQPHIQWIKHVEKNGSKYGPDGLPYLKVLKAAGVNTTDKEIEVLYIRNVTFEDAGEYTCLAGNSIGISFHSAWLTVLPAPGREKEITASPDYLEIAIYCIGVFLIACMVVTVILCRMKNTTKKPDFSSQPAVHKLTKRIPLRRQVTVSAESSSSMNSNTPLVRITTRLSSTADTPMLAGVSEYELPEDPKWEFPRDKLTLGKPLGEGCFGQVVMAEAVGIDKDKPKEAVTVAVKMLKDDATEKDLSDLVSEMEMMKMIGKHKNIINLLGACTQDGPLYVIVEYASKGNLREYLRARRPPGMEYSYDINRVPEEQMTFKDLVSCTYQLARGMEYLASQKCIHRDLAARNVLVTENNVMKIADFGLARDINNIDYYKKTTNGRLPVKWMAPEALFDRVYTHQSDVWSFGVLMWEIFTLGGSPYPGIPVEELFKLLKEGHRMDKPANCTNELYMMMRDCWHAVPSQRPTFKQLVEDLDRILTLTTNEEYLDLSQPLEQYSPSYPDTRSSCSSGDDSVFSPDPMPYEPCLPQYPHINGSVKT
UniProt P22607, 23-806 limits assumed: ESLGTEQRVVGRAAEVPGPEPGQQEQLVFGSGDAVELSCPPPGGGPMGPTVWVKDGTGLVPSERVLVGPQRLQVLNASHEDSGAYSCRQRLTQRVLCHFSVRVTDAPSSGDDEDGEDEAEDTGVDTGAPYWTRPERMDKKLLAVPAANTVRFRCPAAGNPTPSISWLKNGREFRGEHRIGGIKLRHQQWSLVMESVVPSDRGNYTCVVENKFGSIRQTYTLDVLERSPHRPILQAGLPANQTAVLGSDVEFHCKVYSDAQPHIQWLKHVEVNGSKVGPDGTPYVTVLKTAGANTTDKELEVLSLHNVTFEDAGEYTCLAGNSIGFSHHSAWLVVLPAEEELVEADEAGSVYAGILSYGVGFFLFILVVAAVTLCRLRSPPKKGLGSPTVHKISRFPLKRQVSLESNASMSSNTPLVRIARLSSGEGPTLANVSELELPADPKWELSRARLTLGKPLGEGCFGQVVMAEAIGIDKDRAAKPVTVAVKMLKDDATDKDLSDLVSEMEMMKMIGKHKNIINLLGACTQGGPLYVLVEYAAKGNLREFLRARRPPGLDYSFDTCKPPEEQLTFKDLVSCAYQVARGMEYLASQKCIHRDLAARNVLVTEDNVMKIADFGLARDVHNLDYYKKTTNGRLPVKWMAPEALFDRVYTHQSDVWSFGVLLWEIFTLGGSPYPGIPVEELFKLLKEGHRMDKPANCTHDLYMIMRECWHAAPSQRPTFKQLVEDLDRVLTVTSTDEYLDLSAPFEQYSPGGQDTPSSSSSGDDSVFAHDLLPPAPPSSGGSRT
UniProt P22455, 22-802 limits assumed: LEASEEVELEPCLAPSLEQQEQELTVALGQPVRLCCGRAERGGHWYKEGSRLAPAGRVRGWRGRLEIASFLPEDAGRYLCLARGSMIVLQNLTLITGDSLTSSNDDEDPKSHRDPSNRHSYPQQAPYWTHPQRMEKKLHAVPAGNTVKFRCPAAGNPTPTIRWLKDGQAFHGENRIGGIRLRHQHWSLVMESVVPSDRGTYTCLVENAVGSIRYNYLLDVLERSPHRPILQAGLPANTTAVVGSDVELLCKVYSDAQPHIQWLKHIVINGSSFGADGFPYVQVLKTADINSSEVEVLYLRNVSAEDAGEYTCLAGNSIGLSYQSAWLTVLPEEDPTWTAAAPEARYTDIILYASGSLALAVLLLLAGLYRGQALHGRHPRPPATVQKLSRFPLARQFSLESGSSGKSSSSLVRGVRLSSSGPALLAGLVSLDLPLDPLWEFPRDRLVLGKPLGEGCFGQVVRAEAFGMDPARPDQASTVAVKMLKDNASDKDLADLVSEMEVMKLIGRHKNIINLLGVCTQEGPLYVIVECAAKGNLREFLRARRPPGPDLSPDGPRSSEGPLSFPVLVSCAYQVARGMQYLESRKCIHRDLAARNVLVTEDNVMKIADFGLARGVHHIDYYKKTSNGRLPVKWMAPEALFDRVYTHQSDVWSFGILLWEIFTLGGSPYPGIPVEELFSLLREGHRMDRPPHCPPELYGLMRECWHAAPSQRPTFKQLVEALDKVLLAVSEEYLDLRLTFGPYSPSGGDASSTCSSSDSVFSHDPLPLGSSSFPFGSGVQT
UniProt P11362, 22-822 limits assumed: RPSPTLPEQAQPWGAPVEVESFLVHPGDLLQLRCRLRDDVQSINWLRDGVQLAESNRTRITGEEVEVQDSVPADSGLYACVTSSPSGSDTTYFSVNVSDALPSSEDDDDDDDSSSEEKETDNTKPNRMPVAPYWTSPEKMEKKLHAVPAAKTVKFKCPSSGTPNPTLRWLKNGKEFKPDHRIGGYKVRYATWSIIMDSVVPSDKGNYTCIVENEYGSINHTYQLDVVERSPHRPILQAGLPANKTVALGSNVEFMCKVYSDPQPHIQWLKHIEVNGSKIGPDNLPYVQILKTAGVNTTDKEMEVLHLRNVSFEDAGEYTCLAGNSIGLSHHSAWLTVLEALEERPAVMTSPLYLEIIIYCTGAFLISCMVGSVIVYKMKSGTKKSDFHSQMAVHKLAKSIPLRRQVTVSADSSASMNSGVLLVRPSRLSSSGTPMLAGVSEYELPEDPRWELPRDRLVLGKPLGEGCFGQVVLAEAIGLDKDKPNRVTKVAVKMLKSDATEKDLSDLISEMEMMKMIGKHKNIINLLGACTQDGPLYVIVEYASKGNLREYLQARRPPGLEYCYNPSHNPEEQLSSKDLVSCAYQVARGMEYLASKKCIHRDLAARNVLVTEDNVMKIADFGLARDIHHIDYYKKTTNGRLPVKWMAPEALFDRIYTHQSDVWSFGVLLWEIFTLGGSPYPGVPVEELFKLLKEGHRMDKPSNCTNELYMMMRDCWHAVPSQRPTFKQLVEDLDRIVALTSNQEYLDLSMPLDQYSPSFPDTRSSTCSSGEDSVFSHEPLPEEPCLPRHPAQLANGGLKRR

Legend:
FGFR2 = FGFR2 (Homo sapiens (Human), UniProt P21802); experiment: FGFR Enzymatic Assay (FRET peptide phosphorylation), FGFR2; type: biochemical; conditions: read-out: FGFR2 IC50; pre-incubated for 4 hours
FGFR3 enzyme = FGFR3 enzyme (Homo sapiens (Human), UniProt P22607); experiment: FGFR Enzymatic Assay (FRET peptide phosphorylation), FGFR3; conditions: pre-incubated for 4 hours
FGFR4 = FGFR4 (Homo sapiens (Human), UniProt P22455); experiment: FGFR Enzymatic Assay (FRET peptide phosphorylation), FGFR4; type: biochemical; conditions: read-out: FGFR4 IC50; pre-incubated for 4 hours
FGFR1 = FGFR1 (Homo sapiens (Human), UniProt P11362); experiment: FGFR Enzymatic Assay (FRET peptide phosphorylation), FGFR1; conditions: read-out: FGFR1 IC50; pre-incubated for 4 hours

For `COc1cc(OC)c(F)c(N2Cc3cnc(-c4cn(C)nc4C)cc3N(c3cnn(C)c3)C2=O)c1F`, the IC50 (FGFR2) was under 10 nM, the “FGFR1/FGFR3 IC50 ratio” value (FGFR3 enzyme; FGFR3 selectivity) was over 10 and the “FGFR4/FGFR3 IC50 ratio” value (FGFR3 enzyme; FGFR3 selectivity) was over 10. It also gave an IC50 (FGFR3 enzyme; read-out: FGFR3 IC50) of under 10 nM, an IC50 (FGFR4) of 30 to 200 nM and an IC50 (FGFR1) of 30 to 200 nM.
